Values of other authors, collected in patent publication US10413612B2, “Method of treating cancer with a biomaterial and a toll-like receptor agonist” (Dana-Farber Cancer Institute, Inc., priority 2016, dated 2019).
Several values for one entry are separate records, joined by “and”; a condition that tells them apart may be missing. Equal entries are not always repeated.

Columns and labels:
TLR7 = molecular target: T1, TLR7 (Homo sapiens, UniProt Q9NYK1); conditions: cited from earlier work
T1 construct: expressed in transfected cells; host or cells: HEK293
T1 sequence (Q9NYK1 27-1049): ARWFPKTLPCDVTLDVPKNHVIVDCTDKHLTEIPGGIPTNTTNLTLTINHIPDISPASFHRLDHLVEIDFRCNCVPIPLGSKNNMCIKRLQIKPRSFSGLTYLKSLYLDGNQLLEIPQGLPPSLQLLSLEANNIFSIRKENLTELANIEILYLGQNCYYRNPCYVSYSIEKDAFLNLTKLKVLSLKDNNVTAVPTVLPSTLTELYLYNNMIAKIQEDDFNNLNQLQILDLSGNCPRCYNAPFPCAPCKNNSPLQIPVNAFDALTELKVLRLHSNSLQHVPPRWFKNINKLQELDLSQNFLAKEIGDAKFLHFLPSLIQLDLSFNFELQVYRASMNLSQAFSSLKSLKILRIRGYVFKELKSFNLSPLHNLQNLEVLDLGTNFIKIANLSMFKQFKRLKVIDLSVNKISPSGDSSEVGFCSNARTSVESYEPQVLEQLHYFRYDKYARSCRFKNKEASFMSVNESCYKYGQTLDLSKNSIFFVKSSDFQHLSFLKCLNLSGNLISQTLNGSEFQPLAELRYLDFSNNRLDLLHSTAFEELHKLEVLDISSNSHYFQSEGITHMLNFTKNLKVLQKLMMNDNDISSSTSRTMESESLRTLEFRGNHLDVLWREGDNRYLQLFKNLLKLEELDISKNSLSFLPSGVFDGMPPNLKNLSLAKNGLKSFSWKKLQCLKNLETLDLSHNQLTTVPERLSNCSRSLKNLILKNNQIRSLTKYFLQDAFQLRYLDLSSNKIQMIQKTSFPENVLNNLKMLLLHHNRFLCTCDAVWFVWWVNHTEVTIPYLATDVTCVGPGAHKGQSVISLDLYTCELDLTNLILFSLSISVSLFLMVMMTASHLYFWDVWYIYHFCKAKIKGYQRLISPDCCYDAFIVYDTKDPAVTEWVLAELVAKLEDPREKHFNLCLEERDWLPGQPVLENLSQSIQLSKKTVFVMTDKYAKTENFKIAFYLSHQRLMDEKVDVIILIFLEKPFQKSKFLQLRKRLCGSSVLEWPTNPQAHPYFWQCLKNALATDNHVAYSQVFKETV

TLR8 = molecular target: T2, TLR8 (Homo sapiens, UniProt Q9NR97); conditions: cited from earlier work
T2 construct: expressed in transfected cells; host or cells: HEK293
T2 sequence (Q9NR97 27-1041): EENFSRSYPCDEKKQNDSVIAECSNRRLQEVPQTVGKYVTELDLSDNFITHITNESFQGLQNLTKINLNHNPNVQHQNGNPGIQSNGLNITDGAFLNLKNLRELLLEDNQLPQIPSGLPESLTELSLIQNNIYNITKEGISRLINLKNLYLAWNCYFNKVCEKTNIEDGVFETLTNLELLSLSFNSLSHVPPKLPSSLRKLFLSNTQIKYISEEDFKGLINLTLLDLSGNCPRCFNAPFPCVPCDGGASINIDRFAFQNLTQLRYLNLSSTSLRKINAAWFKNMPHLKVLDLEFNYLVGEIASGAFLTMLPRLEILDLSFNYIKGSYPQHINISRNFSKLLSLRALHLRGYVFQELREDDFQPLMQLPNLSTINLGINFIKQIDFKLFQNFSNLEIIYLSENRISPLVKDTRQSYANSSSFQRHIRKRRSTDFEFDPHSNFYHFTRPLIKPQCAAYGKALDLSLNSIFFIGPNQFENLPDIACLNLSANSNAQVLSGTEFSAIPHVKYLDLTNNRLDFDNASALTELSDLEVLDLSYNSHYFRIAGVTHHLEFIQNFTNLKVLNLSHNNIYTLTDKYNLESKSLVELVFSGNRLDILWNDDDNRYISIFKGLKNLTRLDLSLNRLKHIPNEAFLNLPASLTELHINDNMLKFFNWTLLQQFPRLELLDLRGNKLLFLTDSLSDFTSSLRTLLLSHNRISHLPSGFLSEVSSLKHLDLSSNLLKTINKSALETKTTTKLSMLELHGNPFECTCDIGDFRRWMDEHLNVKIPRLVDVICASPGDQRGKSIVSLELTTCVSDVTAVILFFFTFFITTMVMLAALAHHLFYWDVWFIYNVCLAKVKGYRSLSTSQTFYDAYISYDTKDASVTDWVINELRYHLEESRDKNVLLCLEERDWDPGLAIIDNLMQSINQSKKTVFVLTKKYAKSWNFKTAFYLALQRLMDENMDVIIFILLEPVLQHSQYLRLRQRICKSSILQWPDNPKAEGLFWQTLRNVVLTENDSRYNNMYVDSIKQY

Q: What does the source list for `CCOCc1nc2c(N)nc3ccccc3c2[nH]1` [CL097]?
A: concentration inducing NF-κB activation (TLR7): 0.4 μM and 0.1 μg/ml; concentration inducing NF-κB activation (TLR8): 4 μM and 1 μg/ml
